Experimental findings from US20090281099A1, “SUBSTITUTED PYRAZINONE DERIVATIVES FOR USE AS A MEDICINE” (priority 2006, published 2009) are described below.

Amino acid sequences for entries named in this document (tags omitted).
UniProt P08913, whole entry: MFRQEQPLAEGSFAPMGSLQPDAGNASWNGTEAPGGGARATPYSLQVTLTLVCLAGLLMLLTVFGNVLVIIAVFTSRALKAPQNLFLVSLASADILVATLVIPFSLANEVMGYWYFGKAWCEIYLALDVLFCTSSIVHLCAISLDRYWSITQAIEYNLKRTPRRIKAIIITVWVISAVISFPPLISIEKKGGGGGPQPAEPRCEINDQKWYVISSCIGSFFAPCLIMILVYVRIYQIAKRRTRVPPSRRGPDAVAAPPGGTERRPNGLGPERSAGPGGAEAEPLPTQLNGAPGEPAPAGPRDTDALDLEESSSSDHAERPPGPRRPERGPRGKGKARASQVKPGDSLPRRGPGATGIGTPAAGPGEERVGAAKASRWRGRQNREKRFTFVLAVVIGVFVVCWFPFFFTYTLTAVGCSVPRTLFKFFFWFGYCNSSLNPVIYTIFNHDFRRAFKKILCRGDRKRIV
UniProt P18825, whole entry: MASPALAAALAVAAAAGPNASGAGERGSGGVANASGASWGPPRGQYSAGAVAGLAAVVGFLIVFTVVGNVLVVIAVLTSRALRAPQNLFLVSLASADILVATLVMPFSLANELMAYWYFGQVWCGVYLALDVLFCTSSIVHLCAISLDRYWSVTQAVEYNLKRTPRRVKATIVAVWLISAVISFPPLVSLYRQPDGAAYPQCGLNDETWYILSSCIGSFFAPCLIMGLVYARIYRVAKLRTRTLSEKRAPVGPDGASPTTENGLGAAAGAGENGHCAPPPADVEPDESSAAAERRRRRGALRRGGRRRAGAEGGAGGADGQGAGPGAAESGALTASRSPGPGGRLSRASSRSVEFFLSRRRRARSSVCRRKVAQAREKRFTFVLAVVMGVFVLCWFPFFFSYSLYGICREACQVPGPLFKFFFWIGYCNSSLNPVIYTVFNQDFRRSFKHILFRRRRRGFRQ
UniProt P31645, whole entry: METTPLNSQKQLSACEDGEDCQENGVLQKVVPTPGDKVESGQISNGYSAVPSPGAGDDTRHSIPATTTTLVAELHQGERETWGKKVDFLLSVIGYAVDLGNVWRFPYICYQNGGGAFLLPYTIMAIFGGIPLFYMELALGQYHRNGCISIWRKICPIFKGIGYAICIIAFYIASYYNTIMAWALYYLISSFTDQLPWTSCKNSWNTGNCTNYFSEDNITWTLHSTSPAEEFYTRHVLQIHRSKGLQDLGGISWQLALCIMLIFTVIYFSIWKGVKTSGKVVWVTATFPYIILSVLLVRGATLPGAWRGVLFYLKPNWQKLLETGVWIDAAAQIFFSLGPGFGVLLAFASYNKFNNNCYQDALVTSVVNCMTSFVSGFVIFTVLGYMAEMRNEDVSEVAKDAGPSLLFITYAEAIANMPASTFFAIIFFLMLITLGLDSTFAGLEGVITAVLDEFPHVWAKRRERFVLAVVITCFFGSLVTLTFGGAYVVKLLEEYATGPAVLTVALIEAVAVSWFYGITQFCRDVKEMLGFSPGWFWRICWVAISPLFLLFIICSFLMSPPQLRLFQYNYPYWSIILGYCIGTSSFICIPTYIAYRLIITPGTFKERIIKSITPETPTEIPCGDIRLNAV

The target in one assay is hα2A receptor (Homo sapiens, UniProt P08913). Description: Radioligand binding experiment for hα2A receptor ([3H]-raulwolscine, CHO cell membranes). Conditions: [3H]raulwolscine 1 nM, membranes of CHO cells transfected with human α2A receptor.
The next assay concerns the target hα2C receptor (Homo sapiens, UniProt P18825). Description: Radioligand binding experiment for α2C-adrenoceptor ([3H]-raulwolscine, CHO cell membranes). The conditions noted are these: [3H]raulwolscine 1 nM, membranes of CHO cells transfected with human α2C receptor.
The next assay addresses 5HT-Transporter (Homo sapiens, UniProt P31645). Description: Binding experiment for the 5HT-transporter ([3H]paroxetine, human platelet membranes). The conditions noted are these: [3H]paroxetine 0.5 nM.

`O=c1c(NC2CCN(CCOc3ccccc3)CC2)nccn1-c1ccc(CN2CCOCC2)cc1`: on hα2A receptor (tested form: HCl), the “h-α2A pIC50” value is listed as 7.0. For the same compound, the “h-α2C pIC50” value at hα2C receptor (tested form: HCl) worked out at 8.3. The “h-5HTT pIC50” value at 5HT-Transporter (tested form: HCl) was below 5.

For the compound `CN1CCN(Cc2ccc(-n3ccnc(NC4CCN(CCOc5ccccc5)CC4)c3=O)cc2)CC1`, at hα2A receptor, the “h-α2A pIC50” value was determined as 6.8. For the same compound, on hα2C receptor, the “h-α2C pIC50” value was determined as 8.5. In addition, the “h-5HTT pIC50” value on 5HT-Transporter worked out at 5.5.

On to `CCOC(=O)N1CCC(NCc2ccc(-n3ccnc(NC4CCN(CCOc5ccccc5)CC4)c3=O)cc2)CC1`, for which the “h-α2A pIC50” value at hα2A receptor came to 6.5. For the same compound, on hα2C receptor, the “h-α2C pIC50” value worked out at 7.9. The “h-5HTT pIC50” value at 5HT-Transporter amounted to 5.2.
